Where two headings read alike, the source gives them in different places.
Assays:
[1] = Determination of inhibitor concentration in mouse plasma after intraperitoneal and oral dosing; type: in vivo
[2] = biological target: phosphorylated VEGF-R2Δ50 (FLVK-P) (Homo sapiens, UniProt P35968, DEL940-989/E990V); experiment: VEGF-R2 coupled spectrophotometric assay, phosphorylated VEGF-R2Δ50 (FLVK-P)
[3] = biological target: CDK2/Cyclin A (Homo sapiens, UniProt P24941); experiment: CDK2/Cyclin A assay ([32P]ATP, Rb fragment); type: biochemical; conditions: Table 3
[4] = 25 mg/kg, vehicle PEG400:H2O pH 2.3 30:70

By UniProt entry, the sequences of proteins in these tests, tags left out. Chains listed by the source or under a name are the forms on record and can include a tag or linker.
UniProt P35968, with tags, fused parts or gaps DEL940-989/E990V limits assumed: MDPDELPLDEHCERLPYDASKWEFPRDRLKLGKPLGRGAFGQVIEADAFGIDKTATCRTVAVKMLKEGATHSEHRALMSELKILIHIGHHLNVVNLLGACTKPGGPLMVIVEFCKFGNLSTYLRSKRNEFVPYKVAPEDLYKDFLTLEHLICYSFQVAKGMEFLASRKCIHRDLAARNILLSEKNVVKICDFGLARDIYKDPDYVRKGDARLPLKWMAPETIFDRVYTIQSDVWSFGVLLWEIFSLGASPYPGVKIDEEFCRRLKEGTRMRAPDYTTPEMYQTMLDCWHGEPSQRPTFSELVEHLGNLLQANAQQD

## O=C(Nc1cccc(Oc2ccc3c(/C=C/c4c[nH]cn4)n[nH]c3c2)c1)c1ccccc1 [Example 32(a), 6-[3-Benzamidophenoxy]-3-E-[2-(1H-imidazol-4-yl)ethenyl]-1H-indazole]
[1]; [4]
  plasma half-life (T1/2): 2.1 h

## O=C(NCc1cccc(F)c1)c1ccccc1Sc1ccc2c(/C=C/c3ccccn3)n[nH]c2c1 [Example 35(ff)]
[1]; [4]
  AUClast: Blq
  Cmax: Blq
  Cmin (7 hr conc.): blq
  plasma half-life (T1/2): blq

## CCn1nc(C)cc1C(=O)Nc1cc(C(=O)c2ccc3c(/C=C/c4ccccn4)n[nH]c3c2)ccc1C [Example 41(ee), 6-[3-((1-Ethyl-3-methyl-1H-pyrazol-5-yl)carboxanido)-4-methylbenzoyl]-3-E-[2-(pyridin-2-yl)ethenyl]-1H-indazole]
[1]; female, 50 mg/kg, vehicle PEG400:H2O pH 2.3 30:70, read-out: Cmax
  Cmax: > 5000 ng/mL

## Nc1cccc(C(=O)c2ccc3c(/C=N/n4cccc4)n[nH]c3c2)c1 [Example 44]
[2]
  Ki: 9.6 nM

## C(=C\c1n[nH]c2cc(-c3ccnc4[nH]ccc34)ccc12)/c1ccccc1 [Example 52(b), 6-(7-Azaindol-4-yl)-3-E-styryl-1H-indazole]
[3]
  Ki: 241 nM

From patent US6534524B1, “Indazole compounds and pharmaceutical compositions for inhibiting protein kinases, and methods for their use” (Agouron Pharmaceuticals, Inc., priority 1999, dated 2003)
